Structures can show the parent of a compound that is named as a salt.
Assays:
[1] = Agonist effect on the Dopamine D4.2 receptor was determined by evaluating effective concentration causing stimulation of mitogenesis
[2] = as above; remark: listed apart in the source

- EC50 [1]: 31 nM
- EC50 [2]: 31 nM
SMILES: c1ccc(C2=N[C@@H](CN3CCN(c4ccccc4)CC3)CN2)cc1 [1-Phenyl-4-((R)-2-phenyl-4,5-dihydro-1H-imidazol-4-ylmethyl)-piperazine; hydrochloride]
